This passage reports Ki results from ChEMBL document CHEMBL1131654 (Bioorg Med Chem Lett, 1998).

Protein sequences, listed by entry. Tags and fused reporters are not part of them.
UniProt P08908, whole entry: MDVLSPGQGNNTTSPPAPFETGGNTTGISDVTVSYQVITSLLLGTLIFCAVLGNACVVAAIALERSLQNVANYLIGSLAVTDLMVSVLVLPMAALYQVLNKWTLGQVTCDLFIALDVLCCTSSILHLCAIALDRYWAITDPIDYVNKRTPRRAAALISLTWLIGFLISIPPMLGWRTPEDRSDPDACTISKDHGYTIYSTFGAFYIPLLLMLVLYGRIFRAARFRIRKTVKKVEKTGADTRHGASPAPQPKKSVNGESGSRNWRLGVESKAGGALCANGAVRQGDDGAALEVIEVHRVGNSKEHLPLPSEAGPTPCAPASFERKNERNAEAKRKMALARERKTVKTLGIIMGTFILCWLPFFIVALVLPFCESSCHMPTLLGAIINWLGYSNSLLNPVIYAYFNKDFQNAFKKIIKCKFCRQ

The assay has as its target 5-hydroxytryptamine receptor 1A (Homo sapiens, UniProt P08908). Put plainly: In vitro binding affinity was determined towards cloned human 5-hydroxytryptamine 1A receptor using [3H]8-OH-DPAT radioligand.

By Ki is commonly meant a measure of affinity in units of concentration, obtained from inhibition or displacement. High values mean a looser hold on the target, low ones a stronger hold on the target. Regarding `CNS(=O)(=O)Cc1ccc2[nH]cc(CCN(C)C)c2c1`, the affinity corresponds to a Ki of 407 nM.
